CycPeptMPDB entries from one study

Collected by the curators of CycPeptMPDB (Li et al. 2023) from Wang et al. 2015, doi:10.1016/j.ejmech.2015.04.049.

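The data file gives no further conditions (lipid, pH, time, direction or concentration), and values from different papers need not be comparable. The list need not hold all peptides of the study. Entries at the database's floor value (log10 P of -10) are not listed.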

PAMPA is the parallel artificial membrane permeability assay, which has no cells and reads passive diffusion. Caco-2 values are permeabilities across monolayers of Caco-2 human intestinal cells. Values are log10 P with P in cm/s, so -5 is more permeable than -7. A value with < or ≤ is an upper limit. "–" marks a cell with nothing listed here.

The entry for CC(C)C[C@@H]1NC(=O)[C@H](C(C)C)NC(=O)[C@H](Cc2cc3ccccc3[nH]2)NC(=O)[C@H](Cc2ccccc2)NC(=O)[C@H](Cc2ccccc2)NC(=O)[C@@H]2CCCN2C1=O lists PAMPA -6.43 (log10 cm/s) and Caco-2 -6.62 (log10 cm/s).
The entry for CC(C)C[C@@H]1NC(=O)[C@@H](CC(C)C)NC(=O)[C@@H](CC(C)C)NC(=O)[C@H](Cc2cc3ccccc3[nH]2)NC(=O)[C@@H]2CCCN2C(=O)[C@@H](CC(C)C)NC1=O lists PAMPA -5.60 (log10 cm/s) and Caco-2 -4.76 (log10 cm/s).
The entry for CC(C)C[C@@H]1NC(=O)[C@H](C(C)C)NC(=O)[C@H](Cc2cc3ccccc3[nH]2)N(C)C(=O)[C@H](Cc2ccccc2)NC(=O)[C@H](Cc2ccccc2)NC(=O)[C@@H]2CCCN2C1=O lists Caco-2 -5.77 (log10 cm/s).
The entry for CC(C)C[C@@H]1C(=O)N2CCC[C@H]2C(=O)N[C@@H](Cc2ccc(O)cc2)C(=O)N(C)[C@H](C)C(=O)N(C)CC(=O)N[C@@H](Cc2ccccc2)C(=O)N1C lists PAMPA -7.15 (log10 cm/s) and Caco-2 -6.20 (log10 cm/s).
The entry for CC(C)C[C@@H]1NC(=O)[C@H](Cc2cc3ccccc3[nH]2)NC(=O)[C@@H]2CCCN2C(=O)[C@@H](CC(C)C)NC(=O)[C@@H](CC(C)C)NC(=O)[C@@H](CC(C)C)NC1=O lists PAMPA -5.48 (log10 cm/s) and Caco-2 -5.02 (log10 cm/s).
The entry for CC[C@H](C)[C@@H]1NC(=O)[C@H](Cc2cc3ccccc3[nH]2)NC(=O)[C@H]2CCCN2C(=O)[C@H]([C@@H](C)CC)NC(=O)[C@H]([C@@H](C)CC)NC(=O)[C@@H](CC(C)C)NC1=O lists PAMPA -6.39 (log10 cm/s) and Caco-2 -5.51 (log10 cm/s).
The entry for C[C@@H](O)[C@@H]1NC(=O)[C@H](CCCCN)NC(=O)[C@@H](Cc2cc3ccccc3[nH]2)NC(=O)[C@H](Cc2ccccc2)NC(=O)[C@@H]2CCCN2C(=O)[C@H](Cc2ccccc2)NC1=O lists PAMPA -7.10 (log10 cm/s) and Caco-2 -6.03 (log10 cm/s).
The entry for CC(C)C[C@@H]1NC(=O)[C@@H](Cc2ccccc2)NC(=O)CN(C)C(=O)[C@@H](C)N(C)C(=O)[C@H](Cc2ccc(O)cc2)NC(=O)[C@@H]2CCCN2C1=O lists Caco-2 < -6.85 (log10 cm/s).
The entry for CC(C)C[C@H]1C(=O)N2CCC[C@H]2C(=O)N[C@@H](Cc2ccc(O)cc2)C(=O)N(C)[C@H](C)C(=O)N(C)CC(=O)N[C@@H](Cc2ccccc2)C(=O)N1C lists Caco-2 < -6.85 (log10 cm/s).
The entry for CC(C)C[C@H]1C(=O)N2CCC[C@H]2C(=O)N[C@@H](Cc2ccccc2)C(=O)N[C@@H](Cc2ccccc2)C(=O)N[C@@H](Cc2cc3ccccc3[nH]2)C(=O)N[C@@H](C(C)C)C(=O)N1C lists Caco-2 -5.17 (log10 cm/s).
The entry for CC(C)C[C@@H]1C(=O)N[C@H](CC(C)C)C(=O)N[C@H](CC(C)C)C(=O)N2CCC[C@H]2C(=O)N[C@@H](Cc2ccc(O)cc2)C(=O)N(C)[C@@H](CC(C)C)C(=O)N1C lists Caco-2 -4.66 (log10 cm/s).
The entry for N=C(N)NCCC[C@@H]1NC(=O)[C@H](Cc2cc3ccccc3[nH]2)NC(=O)[C@H]2CCCN2C(=O)[C@H](CCCCN)NC(=O)[C@H](CCCNC(=N)N)NC(=O)[C@@H](CCCNC(=N)N)NC1=O lists Caco-2 < -6.85 (log10 cm/s).
The entry for CC(C)C[C@@H]1NC(=O)[C@H](Cc2cc3ccccc3[nH]2)NC(=O)[C@H]2CCCN2C(=O)[C@H](CC(C)C)NC(=O)[C@H](CC(C)C)NC(=O)[C@@H](CC(C)C)NC1=O lists PAMPA -5.78 (log10 cm/s) and Caco-2 -5.23 (log10 cm/s).
The entry for CC(C)C[C@@H]1NC(=O)[C@H](CC(C)C)N(C)C(=O)[C@@H](CC(C)C)N(C)C(=O)[C@H](CC(C)C)N(C)C(=O)[C@H](Cc2ccc(O)cc2)N(C)C(=O)[C@H]2CCCN2C1=O lists PAMPA -5.82 (log10 cm/s) and Caco-2 -4.80 (log10 cm/s).
The entry for C[C@@H]1NC(=O)[C@H](C)N(C)C(=O)[C@H](C)NC(=O)[C@H](C)N(C)C(=O)[C@H](C)NC(=O)[C@@H](C)NC1=O lists Caco-2 < -6.85 (log10 cm/s).
The entry for C[C@@H](O)[C@@H]1NC(=O)[C@@H](CCCCN)NC(=O)[C@@H](Cc2cc3ccccc3[nH]2)NC(=O)[C@H](Cc2ccccc2)NC(=O)[C@@H]2CCCN2C(=O)[C@@H](Cc2ccccc2)NC1=O lists PAMPA -7.05 (log10 cm/s) and Caco-2 -6.70 (log10 cm/s).
The entry for CC(C)C[C@@H]1NC(=O)[C@H](Cc2cc3ccccc3[nH]2)NC(=O)[C@@H]2CCCN2C(=O)[C@H]2CCCN2C(=O)[C@@H](CC(C)C)NC(=O)[C@H](CC(C)C)NC1=O lists PAMPA -6.72 (log10 cm/s) and Caco-2 -6.68 (log10 cm/s).
The entry for CC(C)C[C@@H]1NC(=O)[C@@H](CC(C)C)NC(=O)[C@@H](CC(C)C)NC(=O)[C@@H](CC(C)C)NC(=O)[C@H](Cc2cc3ccccc3[nH]2)NC(=O)[C@@H]2CCCN2C1=O lists PAMPA -6.55 (log10 cm/s) and Caco-2 -6.44 (log10 cm/s).

A selection of 2 entries from above:

| structure (SMILES) | PAMPA (log10 cm/s) | Caco-2 (log10 cm/s) |
|---|---|---|
| CC(C)C[C@@H]1NC(=O)[C@H](C(C)C)NC(=O)[C@H](Cc2cc3ccccc3[nH]2)N(C)C(=O)[C@H](Cc2ccccc2)NC(=O)[C@H](Cc2ccccc2)NC(=O)[C@@H]2CCCN2C1=O | – | -5.77 |
| CC(C)C[C@@H]1NC(=O)[C@H](Cc2cc3ccccc3[nH]2)NC(=O)[C@H]2CCCN2C(=O)[C@H](CC(C)C)NC(=O)[C@H](CC(C)C)NC(=O)[C@@H](CC(C)C)NC1=O | -5.78 | -5.23 |